# Test results reported in PubChem BioAssay AID624126 (The Scripps Research Institute Molecular Screening Center, 2012).
# Chains of the proteins cited; added tags and fusions are not shown.
# UniProt P08173, whole entry, looked up: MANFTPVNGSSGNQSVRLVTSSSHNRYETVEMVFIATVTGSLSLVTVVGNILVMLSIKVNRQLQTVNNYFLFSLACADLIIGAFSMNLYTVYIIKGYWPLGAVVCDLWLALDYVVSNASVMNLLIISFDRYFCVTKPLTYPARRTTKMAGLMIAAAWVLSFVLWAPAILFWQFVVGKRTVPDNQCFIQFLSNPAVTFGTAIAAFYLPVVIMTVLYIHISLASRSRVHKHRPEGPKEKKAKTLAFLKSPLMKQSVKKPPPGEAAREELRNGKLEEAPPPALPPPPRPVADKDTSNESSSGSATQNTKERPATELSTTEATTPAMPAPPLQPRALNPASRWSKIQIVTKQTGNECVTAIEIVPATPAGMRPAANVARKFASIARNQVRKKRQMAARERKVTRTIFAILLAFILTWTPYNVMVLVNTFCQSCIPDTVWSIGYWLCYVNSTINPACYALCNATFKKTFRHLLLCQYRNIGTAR
# Only a part is listed here, and it is no random draw. The source made the active and inactive calls.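 The calls were made as follows: active = activation above its plate's cutoff, the mean activation of sample wells plus 3 SD; inactive = the rest.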
# Biological target: Muscarinic acetylcholine receptor M4 (Homo sapiens) (UniProt P08173)
# Assay: human M4 muscarinic receptor positive allosteric modulators, primary screen, CHO-K1 cells, Fluo-8 calcium fluorescence (AID 624126)
# Settings: CHO-K1 hM4/Gqi5, Fluo-8 calcium fluorescence, ACh EC20; at 3 µM; stronger effect = higher value; 0% = ACh EC20, 100% = maximal ACh
row,Structure (SMILES),activation
1,C/C=C1/CC(C)C(C)(O)C(=O)OCC2CCN3CCC(OC1=O)C23 (stereo not given),inactive: -17.8%
2,CC1CCNP(=O)(N(CCCl)CCCl)O1 (stereo not given),inactive: 3.07%
3,CCOC(=O)Nc1ccc([As](=O)(O)O)c(O)c1,inactive: 11.7%
4,O=C(O)C(O)c1ccc(N(CCCl)CCCl)cc1 (stereo not given),inactive: -3.94%
5,Cc1cc(SC(NC(=O)c2ccccc2)C(Cl)(Cl)Cl)nc(C(C)C)n1 (stereo not given),active: 25%
6,COP(=O)(OC)N1CC1c1ccccc1 (stereo not given),inactive: -1.12%
7,CCOC(=O)Nc1cccc([As](=O)(O)O)c1,inactive: -4.61%
8,O=[N+]([O-])c1ccc(Nc2ccc(Oc3ccc([N+](=O)[O-])cc3[N+](=O)[O-])cc2)c([N+](=O)[O-])c1,inactive: -0.81%
9,O=P(Nc1ccccn1)(c1cccc2ccccc12)c1cccc2ccccc12,inactive: -0.35%
10,Cc1cc(SC(NC=O)C(Cl)(Cl)Cl)ncn1 (stereo not given),inactive: 18.3%
11,COC(=O)C1(C)COP(=O)(N2CCCC2)OC1 (stereo not given),inactive: 6.35%
12,COP1(=S)c2c(C)nn(CCC#N)c2N=C(c2ccc(F)cc2)N1C (stereo not given),inactive: -1.97%
13,O=C(Nc1ccncc1[N+](=O)[O-])c1ccc([N+](=O)[O-])cc1[N+](=O)[O-],inactive: 1.02%
14,O=C(COc1ccccc1)OC1CN2CCC1CC2 (stereo not given),inactive: -12%
15,O=C(O)C(=O)c1ccc(N(CCCl)CCCl)cc1,inactive: 0.65%
16,CCOC(=O)c1ccc(NC(=O)C(C)(CCl)SC)cc1 (stereo not given),inactive: -5.73%
17,CSc1ccc(Nc2c([N+](=O)[O-])cc([N+](=O)[O-])cc2[N+](=O)[O-])cc1,inactive: -3.85%
18,O=C(OC1CN2CCC1CC2)c1cccc([N+](=O)[O-])c1 (stereo not given),inactive: -7.73%
19,CCC(C)N(CC(C)C)C(=S)SC(NC(C)=O)C(Cl)(Cl)Cl (stereo not given),inactive: 1.5%
20,Cc1cc(=O)[nH]c(N[N+](=O)[O-])n1,inactive: 9.02%
21,O=C(OC1CN2CCC1CC2)C12CC3CC(CC(C3)C1)C2 (stereo not given),inactive: -16.6%
22,Cc1c2c(nc3ccccc13)SC(C(Cl)Cl)C2 (stereo not given),inactive: 4.17%
23,COc1cc(I)ccc1[As](=O)(O)O,inactive: 8.02%
24,COc1ccc2nc(NP(=O)(c3ccccc3)c3ccccc3)sc2c1,inactive: -6.25%
25,O=P1(N(CCCl)CCCl)OCCCN1CCCl (stereo not given),inactive: -3.31%

row,Structure (SMILES),activation
1,O=P1(N(CCCl)CCCl)Nc2ccccc2N1,inactive: 4.12%
2,COc1ccc(N/C(=N/P(=O)(N2CCOCC2)N2CCOCC2)N2CCOCC2)cc1,inactive: 2.7%
3,O=[N+]([O-])c1cc(Oc2ccc([N+](=O)[O-])cc2C(F)(F)F)cc([N+](=O)[O-])c1,inactive: 3.01%
4,O=[N+]([O-])c1ccc(-c2cc([N+](=O)[O-])c(O)c([N+](=O)[O-])c2)cc1,inactive: 7.75%
5,C[As](=O)(O)c1cccc(C(=O)O)c1,inactive: 3.25%
6,O=[As](O)(c1ccc(O)cc1)c1ccccc1O,inactive: 13.7%
7,Cc1ccc2nc3c(c(C)c2c1)CC(C(Cl)Cl)S3 (stereo not given),inactive: 10.5%
8,CC(Cc1ccc(O)cc1)NCC(O)c1cc(O)cc(O)c1 (stereo not given),inactive: 2.9%
9,[N-]=[N+]=NC1CCCCC1NC(=O)c1cc([N+](=O)[O-])cc([N+](=O)[O-])c1 (stereo not given),inactive: 0.57%
10,Cc1ccc(OP(=O)(Nc2ccc([N+](=O)[O-])cn2)Oc2ccc(C)cc2)cc1,inactive: 6.59%
11,COC(=O)C1(C)COP(=O)(N2CCCCCC2)OC1 (stereo not given),inactive: 3.67%
12,CC(C)c1ccc(OP(=O)(Nc2ccccn2)Oc2ccccc2F)cc1 (stereo not given),inactive: -11.5%
13,ClCCSc1nnc(-c2cccnc2)o1,inactive: 16.7%
14,O=[N+]([O-])c1cc([N+](=O)[O-])c(-c2ccn[nH]2)s1,inactive: 4.7%
15,CC(C)NC(=O)NP(=O)(Oc1ccccc1)Oc1ccccc1,inactive: 2.79%
16,O=C(OC1CN2CCC1CC2)c1cccc2[nH]cnc12 (stereo not given),inactive: 1.15%
17,CCN(CC)C(=S)SC(NC=O)C(Cl)(Cl)Cl (stereo not given),inactive: -1.84%
18,CS(=O)(=O)c1cc([N+](=O)[O-])c2no[n+]([O-])c2c1,inactive: 18.8%
19,O=P(Nc1nccs1)(Oc1ccccc1)Oc1ccccc1,inactive: 4.61%
20,O=P(Nc1nccs1)(c1ccccc1)c1nc2ccccc2s1 (stereo not given),inactive: 3.8%
21,CCOP1(=S)c2c(C)nn(CCC#N)c2N=C(c2ccccc2F)N1C (stereo not given),inactive: -7.76%
22,Nc1ccccc1[As](=O)(O)c1ccccc1,inactive: 6.18%
23,O=C(O)COc1ccc([As](=O)(O)O)cc1[N+](=O)[O-],inactive: 1.87%
24,NC(=O)Nc1ccc([As](=O)(O)O)cc1,inactive: 1.13%
25,CN(C(=O)Cc1ccc(Cl)c(Cl)c1)[C@H]1CC[C@@]2(CCCO2)C[C@@H]1N1CCCC1,inactive: -0.05%

row,Structure (SMILES),activation
1,O=[N+]([O-])c1ccc2c(c1)nnn2O,inactive: 7.43%
2,CN(C)C(=O)c1cc([N+](=O)[O-])cc2c1-c1c(cc([N+](=O)[O-])cc1[N+](=O)[O-])C2=O,inactive: -9.45%
3,CN(C(=O)Cc1ccccc1)[C@@H]1CC[C@]2(CCCO2)C[C@H]1N1CCCC1,inactive: -5.93%
4,CCOP1(=S)c2c(C)nn(CCC#N)c2N=C(c2ccc(F)cc2)N1C (stereo not given),inactive: 2.18%
5,N#CCCN(C(=O)COC(=O)C(O)(c1ccccc1)c1ccccc1)c1ccc(F)cc1,inactive: -2.19%
6,CS(=O)(=O)c1ccc(Cl)c(NC(=O)COC(=O)C(O)(c2ccccc2)c2ccccc2)c1,inactive: -9.56%
7,O=[As](O)(O)c1cccnc1,inactive: -1.72%
8,O=C(OC1CN2CCC1CC2)c1ccc(Cl)cc1 (stereo not given),inactive: -12.3%
9,Cc1cccc(OCC(=O)OC2CN3CCC2CC3)c1 (stereo not given),inactive: 3.35%
10,O=[As](O)(c1cccc(O)c1)c1cccc(O)c1,inactive: 2.6%
11,C[C@H]1C(=O)O[C@@H]2CCN3CC=C(COC(=O)[C@](C)(O)[C@]1(C)O)[C@H]23,inactive: 5.14%
12,CCCOP(=S)(Nc1nc(N)cc(=O)[nH]1)OCCC,inactive: 0.66%
13,Nc1cccc2c([As](=O)(O)O)cccc12,inactive: -5.61%
14,Cc1ccc(NCCc2c([N+](=O)[O-])cc([N+](=O)[O-])cc2[N+](=O)[O-])cc1,inactive: -0.12%
15,CCOP(=O)(Nc1cccc2ccccc12)OCC,inactive: 4.41%
16,COc1cc(C2NCCC3(OCCO3)C2(C)C)cc(OC)c1OC (stereo not given),inactive: 12.6%
17,CCOP(=O)(Nc1ccc(C)cn1)OCC,inactive: 2.77%
18,CN(CCCl)Cc1cc(Cl)c(NC2=NCCN2)c(Cl)c1,inactive: -0.63%
19,CCOP(=O)(NC(=NC(C)c1ccccc1)NC(C)c1ccccc1)OCC (stereo not given),inactive: -2.06%
20,O=P1(Nc2ccccn2)COc2ccccc2OC1,inactive: -0.82%
21,CCC1=CC2Cc3nc4ccc(Cl)cc4c(N)c3C(C1)C2 (stereo not given),inactive: -15.9%
22,CC(C)(C)C(=O)NC(Sc1ncccn1)C(Cl)(Cl)Cl (stereo not given),inactive: 10.9%
23,O=P1(N(CCCl)CCCl)NCCC(C(F)(F)F)O1 (stereo not given),inactive: -3.46%
24,Clc1n[nH]nc1-c1nn[nH][15n]1,inactive: 3.92%
25,COc1ccccc1CNC(=O)COC(=O)C(O)(c1ccccc1)c1ccccc1,inactive: -2.57%

row,Structure (SMILES),activation
1,CC1(CBr)Cn2c(nc3ccccc3c2=O)S1 (stereo not given),inactive: 3.13%
2,CC(C)/C=N\N=C(\N)N[N+](=O)[O-],inactive: 1.2%
3,CN(C(=O)Cc1ccc(Cl)c(Cl)c1)[C@@H]1CCCC[C@H]1N1CCCC1,inactive: -6.91%
4,CC1CCC(C(C)C)C(OP(=O)(Nc2ccccn2)c2ccccc2)C1 (stereo not given),inactive: -7.47%
5,Cc1ccc(C(=O)OC2CN3CCC2CC3)cc1 (stereo not given),inactive: -4.19%
6,Cc1nn(-c2ccccc2)c2c1P(=O)(N1CCOCC1)N(C)C(c1ccccc1)=N2 (stereo not given),inactive: 13.5%
7,CCCC1OP(=O)(Nc2ccccc2)OCC1CC (stereo not given),inactive: 3.53%
8,O=C(/C=C/c1ccccc1)OC1CN2CCC1CC2 (stereo not given),inactive: 2.12%
9,O=P1(Nc2ncccn2)COc2ccccc2OC1,inactive: -0.01%
10,Cc1ccc(S(=O)(=O)N(CCCN)CCCc2c(C)nc(N)[nH]c2=O)cc1,inactive: 1.99%
11,O=[As](O)(c1cccs1)c1cccs1,inactive: 0.31%
12,Cc1ccc(OCC(=O)OC2CN3CCC2CC3)cc1 (stereo not given),inactive: -8.29%
13,O=P1(Nc2ccc(Br)cn2)COc2ccccc2OC1,inactive: -6.79%
14,NS(=O)(=O)c1cccc(NC(=O)COC(=O)C(O)(c2ccccc2)c2ccccc2)c1,inactive: 4.16%
15,Nc1cccc([As](=O)(O)c2ccccc2)c1,inactive: -17.8%
16,COc1ccc(N)c([N+](=O)[O-])c1[N+](=O)[O-],inactive: 4.13%
17,Nc1ccc(CCCCOc2ccccc2)cc1,inactive: 13.7%
18,O=P(Nc1ccccn1)(c1ccc(Br)cc1)c1ccc(Br)cc1,inactive: 5.81%
19,C[C@H]1OP(=O)(Oc2ccccc2)[C@H](O)[C@H](O)[C@H]1N=[N+]=[N-] (stereo not given in full),inactive: -2.55%
20,O=P(Nc1nc2ccccc2s1)(c1ccccc1)c1ccccc1,inactive: -16.5%
21,O=[N+]([O-])c1ccc(O)c(/C=N/Nc2ccc([N+](=O)[O-])cc2[N+](=O)[O-])c1,inactive: 0.14%
22,O=[N+]([O-])c1ncn(CCn2cnc([N+](=O)[O-])n2)n1,inactive: -3.7%
23,CC(=O)NC(SC(=S)N(C)C)C(Cl)(Cl)Cl (stereo not given),inactive: 12.9%
24,O=[As](O)(c1ccccc1)c1ccc(O)cc1,inactive: -6.09%
25,C(Cc1nn[nH]n1)Cc1nn[nH]n1,inactive: 1.73%
